Molecules are shown by their SMILES.

Experimental findings from ChEMBL document CHEMBL3272034 are described below.

The nature of the data set: Dissociation constant, pKa of the compound.

In general, pKa refers to the negative logarithm of the acid dissociation constant. The low end stands for a stronger acid or weaker base, the high end for a weaker acid or stronger base. `CN(CCCl)CCCl` came in with a pKa of 6.45.
